# Antibody variant affinities, Ab-14 light chain, assay 1

Values reported by Engelhart et al. 2022, doi:10.1038/s41597-022-01779-4 (FLAb copy).

Antigen: PDVDLGDISGINAS, a 14-residue peptide of the SARS-CoV-2 spike HR2 region.

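The starting antibody came from a phage panning campaign against this peptide. The library (AAYL50) carries one to three amino acid substitutions per variant, with no insertions or deletions. In AlphaSeq, yeast of one mating type display the scFv and yeast of the other type display the target. The frequency of each diploid, read from paired DNA barcodes, reflects how well the two displayed proteins bind. The ratio of observed to expected reads was calibrated, replicate by replicate, on BCL2-family standards whose Kd was known from biolayer interferometry. Mating was done three times.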

Parent: Ab-14, a human scFv built as VH, the linker GGGGSGGGGSGGGGS, VL. Only the CDRs of the light chain vary.
VH: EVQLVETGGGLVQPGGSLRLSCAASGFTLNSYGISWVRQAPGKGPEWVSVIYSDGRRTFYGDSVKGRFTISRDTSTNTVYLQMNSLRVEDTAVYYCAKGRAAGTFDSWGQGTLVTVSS
VL: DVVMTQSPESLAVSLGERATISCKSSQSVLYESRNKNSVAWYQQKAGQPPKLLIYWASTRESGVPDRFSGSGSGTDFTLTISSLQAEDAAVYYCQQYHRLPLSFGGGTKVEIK

Variants are written as CDR1, CDR2 and CDR3 of the light chain (limits as in the source). Parent: KSSQSVLYESRNKNSVA, WASTRES, QQYHRLPLS.
All variants listed here change S28 of the VL, counted from its first residue.
Values are apparent Kd, the geometric mean of the replicates that gave a signal; lower means stronger binding.
Where no diploid with the target was found in any replicate, the entry reads "no signal": below detection, most likely a poor binder, though not proof of it.

- KSSQGVLYESRNKNSVA | WALTRES | QQYHRLPLH -> no signal (0 of 3 replicates)
- KSSQYVLYESRNKNSVA | WASTRES | QQYWRLPPS -> no signal (0 of 3 replicates)
- KSSQFVLYESRNKDSVA | WYSTRES | QQYHRLPLS -> no signal (0 of 3 replicates)
- KSSQEVLYESRNKNSVA | WAVTRMS | QQYHRLPLS -> 42 nM (3 of 3 replicates)
- KSSQVVLYESRNKNGVA | PASTRES | QQYHRLPLS -> 3.8 µM (1 of 3 replicates)
- KSSQAVLYESRNRNSVA | WASTRES | QQYHRLYLS -> no signal (0 of 3 replicates)
- KSSQKVLRESRNKNSHA | WASTRES | QQYHRLPLS -> 57 µM (1 of 3 replicates)
- KSSQTVLYESRNHNSVA | WARTRES | QQYHRLPLS -> 500 nM (3 of 3 replicates)
- KSSQVVLYESVNKNSVA | WASTAES | QQYHRLPLS -> 4.1 µM (2 of 3 replicates)
- KSSQYVLYESRNKNSVA | WASTRES | QQYMRYPLS -> 990 nM (3 of 3 replicates)
- KSSQHVLYVSRNKNSVL | WASTRES | QQYHRLPLS -> no signal (0 of 3 replicates)
- KSSQEVLYESRNKNSKA | WASTRES | QQYIRLPLS -> 78 µM (1 of 3 replicates)
- KSSQGVLYESRNKNSVA | WASTRES | QQYPRLPKS -> no signal (0 of 3 replicates)
- KVSQEVLGESRNKNSVA | WASTRES | QQYHRLPLS -> 740 pM (3 of 3 replicates)
- KSSQKVLYESRNKNSVA | WASTRES | LQYHRLPLS -> 23 nM (3 of 3 replicates)
- ASSQFVLYNSRNKNSVA | WASTRES | QQYHRLPLS -> no signal (0 of 3 replicates)
- KSSQKVLYDSRNKNSVA | WASTRES | QCYHRLPLS -> 11 nM (3 of 3 replicates)
- KSSQPVLYESRNKNSVA | WASTRES | QQYQRLPLS -> 9.7 nM (3 of 3 replicates)
- KSSQWVLYESRNKNSVA | WASTRES | NQYHRLPPS -> no signal (0 of 3 replicates)
- KSSQMVYYESRNKNSVA | WASTRES | QQYHRVPLS -> 22 nM (3 of 3 replicates)
- KSSQRVRYESRNKNSVA | WASTRES | QQYHRLWLS -> 190 nM (3 of 3 replicates)
- KSSQFVLYESRNKNSVA | QASTRES | QQYHRHPLS -> 15 µM (3 of 3 replicates)
- KSSINVLSESRNKNSVA | WASTRES | QQYHRLPLS -> 340 nM (3 of 3 replicates)
- KSSQPVLYESRNKNNVS | WASTRES | QQYHRLPLS -> no signal (0 of 3 replicates)
- MSSQKVLYEARNKNSVA | WASTRES | QQYHRLPLS -> 80 nM (3 of 3 replicates)
- KSSHFVLYEFRNKNSVA | WASTRES | QQYHRLPLS -> 5.2 µM (2 of 3 replicates)
- KSSQLVLYESRNKNSVA | WASTREK | QQYHRLPFS -> 62 nM (3 of 3 replicates)
- KSSQGVPYESRNKNSVA | WASTRES | QQYHRLPLS -> 3.5 nM (3 of 3 replicates)
- KSSQRVLYESRNKNAVA | WASTRES | DQYHRLPLS -> 15 nM (3 of 3 replicates)
- KSHQMVDYESRNKNSVA | WASTRES | QQYHRLPLS -> 11 nM (3 of 3 replicates)
- KSSQLVLYESRNKNSYA | WASTRES | QQYHRLPLS -> 16 µM (2 of 3 replicates)
- KSSQEVLYQSRNKNSVA | WASTRES | QQYHRLPLY -> no signal (0 of 3 replicates)
- KSSQHVLYESREKNSVA | WASTRES | QGYHRLPLS -> 74 nM (3 of 3 replicates)
- KSSQIVLYESRNKNSVA | WAQTRES | QQYARLPLS -> 73 nM (3 of 3 replicates)
- KSSQHVLYESRNKNSVA | WASTRAS | QQYDRLPLS -> 4.2 nM (3 of 3 replicates)
- KSSQCVLYESRCKNSVA | WASTRES | QQYHRPPLS -> 12 µM (2 of 3 replicates)
- KSSDIVFYESRNKNSVA | WASTRES | QQYHRLPLS -> 12 nM (3 of 3 replicates)
- KRSIMVLYESRNKNSVA | WASTRES | QQYHRLPLS -> 18 µM (1 of 3 replicates)
- KSSQRVLYEIRNKNSVA | WASTRES | QQYHYLPLS -> 340 nM (1 of 3 replicates)
- KSSQQVLYESDTKNSVA | WASTRES | QQYHRLPLS -> 18 nM (3 of 3 replicates)
- KSSQCVLYESRNKNSVA | QASTDES | QQYHRLPLS -> 12 µM (1 of 3 replicates)
- KSSDMVLYESRNKNPVA | WASTRES | QQYHRLPLS -> 16 nM (3 of 3 replicates)
- YSSQDVLYESRNKNSVA | WASTRES | QQYHRLPLS -> 17 nM (3 of 3 replicates)
- KSSQDVEYESRNKNSVA | WASTRES | QQYHRLPLE -> 12 nM (3 of 3 replicates)
- KYSQGVLYESRNKNSVA | WASTRES | QQYLRLPLS -> 6.6 nM (3 of 3 replicates)
- KSSQCVLYESHNKNSVA | WASTRES | QQYHRLPHS -> 4.0 µM (1 of 3 replicates)
- WSSQDVLYESRNKNSVA | WASTSES | QQYHRLPLS -> 18 µM (2 of 3 replicates)
- KSSQAVLYEIRWKNSVA | WASTRES | QQYHRLPLS -> no signal (0 of 3 replicates)
- KSSQYVLYESRHKNSVA | WASTRES | QQYHRLPIS -> 140 nM (3 of 3 replicates)
- KSSQNVLYESRNKNSVA | WASTRES | QQYHRLPLS -> 7.3 µM (2 of 3 replicates)
- KSLQNVLYESRNKNSVA | WASTRPS | QQYHRLPLS -> 470 nM (3 of 3 replicates)
- KSSQCVLYESRNKNSVA | WASTRES | QQYLRLPLS -> 150 nM (3 of 3 replicates)

Again, the first 7 entries without any signal:

CDR-L1,CDR-L2,CDR-L3,Kd,seen in
KSSQGVLYESRNKNSVA,WALTRES,QQYHRLPLH,no signal,0/3
KSSQYVLYESRNKNSVA,WASTRES,QQYWRLPPS,no signal,0/3
KSSQFVLYESRNKDSVA,WYSTRES,QQYHRLPLS,no signal,0/3
KSSQAVLYESRNRNSVA,WASTRES,QQYHRLYLS,no signal,0/3
KSSQHVLYVSRNKNSVL,WASTRES,QQYHRLPLS,no signal,0/3
KSSQGVLYESRNKNSVA,WASTRES,QQYPRLPKS,no signal,0/3
ASSQFVLYNSRNKNSVA,WASTRES,QQYHRLPLS,no signal,0/3

Parent in this assay: reference entry 4.4 nM, copy in this library 48 nM.
Background: pairings of library AAYL50 with three empty control strains gave a value in 18% of cases (median 15 µM, 5th percentile 970 nM). Values in that range, when seen in few replicates, are hard to tell from nonspecific mating.